Results from BindingDB's records for PubMed 39145509 (China Pharmaceutical University).

Assay: Binding affinity to human PP5 extracted from Escherichia coli BL21 using immobilized CDC37 as substrate assessed as increase in PP5 binding to substrate by measuring dissociation constant preincubated with compound for 10 mins followed by CDC37 addition by biolayer interferometric analysis (Rvb = 20.9 nM )

`N=c1oc2cc(F)cc(F)c2cc1C(N)=S` showed a Kd of 0.54 nM.
